Our source for the IC50 values is EP0514133A1, “Benzodiazepine derivatives, compositions containing them and their use in therapy” (priority 1991, dated 1992).

Chains of the proteins cited; added tags and fusions are not shown.
UniProt P30551, whole entry: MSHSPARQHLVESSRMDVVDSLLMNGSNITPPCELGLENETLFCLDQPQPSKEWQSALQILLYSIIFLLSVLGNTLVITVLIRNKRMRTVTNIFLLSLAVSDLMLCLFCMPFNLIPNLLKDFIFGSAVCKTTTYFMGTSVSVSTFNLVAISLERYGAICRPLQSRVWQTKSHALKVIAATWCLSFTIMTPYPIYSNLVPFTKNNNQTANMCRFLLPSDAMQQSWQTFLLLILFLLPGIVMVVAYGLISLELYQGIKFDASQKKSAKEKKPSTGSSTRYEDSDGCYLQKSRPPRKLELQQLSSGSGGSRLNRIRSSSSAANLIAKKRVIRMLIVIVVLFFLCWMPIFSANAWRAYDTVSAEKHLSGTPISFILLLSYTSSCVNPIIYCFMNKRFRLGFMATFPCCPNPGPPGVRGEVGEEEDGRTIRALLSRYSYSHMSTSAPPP

Each structure is given as a SMILES string.

In this assay the target is T1, CCK receptor (pancreas) (Rattus norvegicus, UniProt P30551).
T1 construct: The whole pancreas was dissected free of fat tissue and was homogenized; from tissue; host or cells: rat pancreas membrane homogenate
As to the kind of experiment: biochemical. It is filed as binding. The following applies: IC50 ^125I-CCK Pancreas, rat pancreas membranes, 50 pM 125I-CCK-8, 25°C 2 hours. On the procedure: CCK-8 sulphated was radiolabelled with ¹²⁵I-Bolton Hunter reagent (2000 Ci/mmole). Receptor binding was performed according to Chang and Lotti (Proc. Natl. Acad. Sci. 83, 4923-4926, 1986) with minor modifications.
Male Sprague-Dawley rats (150-200g) were sacrificed by decapitation. The whole pancreas was dissected free of fat tissue and was homogenized in 25 volumes of ice-cold 10 mM N-2-hydroxyethyl-piperazine-N′-2-ethane sulphonic acid (HEPES) buffer with 0.1% soya bean trypsin inhibitor (pH 7.4 at 25°C) with a Kinematica Polytron. The homogenates were centrifuged at 47,800 g for 10 min. Pellets were resuspended in 10 volumes of binding assay buffer (20mM (HEPES)), 1mM ethylene glycol-bis-(β-aminoethylether-N,N′-tetraacetic acid) (EGTA), 5mM MgCl₂, 150 mM NaCl, bacitracin 0.25 mg/ml, soya bean trypsin inhibitor 0.1 mg/ml, and bovine serum albumin 2 mg/ml pH 6.5 at 25°C) using a Teflon (trademark) homogenizer, 15 strokes at 500 rpm. […] The radioactivity on the filters was counted with a LKB gamma counter.
Drug displacement studies were performed with at least 10 concentrations of compounds of Formula I and the IC₅₀ values were determined by regression analysis IC₅₀ refers to the concentration of the compound required to inhibit 50% of specific binding of ¹²⁵I-CCK-8.

The term IC50 denotes the midpoint of a concentration-inhibition curve. Low readings indicate inhibition by little substance, high ones a need for much substance. `Cc1cccc(NC(=O)NC2N=C(C3CCCCC3)c3ccccc3N(C)C2=O)c1` (racemic) [Example 1, N-[3(R,S)-5-Cyclohexyl-2,3-dihydro-1-methyl-2-oxo-1H-1,4-benzodiazepin-3-yl] N′-[3-methylphenyl] urea]: the 50% inhibitory concentration (IC50) was determined as 1.5 nM.

In the case of `Cc1cccc(NC(=O)NC2N=C(C3CCCCC3)c3ccccc3N(C)C2=O)c1` (single isomer, unassigned) [7 (Peak A)], the IC50 came out at 1700 nM.
